pKd: −log10 of the molar value.
Assays:
[1] = biological target: porcine gelatin (denatured collagen) (porcine); assay: fluorescence retention in crosslinked gelatin films
[2] = biological target: porcine gelatin (denatured collagen) (porcine); assay: fluorescence on crosslinked gelatin, non-preheated peptides (FIG. 17)
[3] = biological target: porcine gelatin (denatured collagen) (porcine); assay: fluorescence on crosslinked gelatin, non-preheated peptides, 20 h wash at 37 °C (FIG. 17)
[4] = biological target: porcine gelatin (denatured collagen) (porcine); assay: fluorescence of CF peptide (20 µM) on crosslinked gelatin films, 37 °C overnight, no preheating
[5] = biological target: porcine gelatin (denatured collagen) (porcine); assay: ELISA-like assay, 25 °C

| Substance | percent retention [1] [%] | fold binding against comparable length CHPs as previously reported [4] [fold] | pKd [5] | also measured |
| --- | --- | --- | --- | --- |
| b-6d, [(GPO)6G3]2KG3K^Biotin (peptide) |  |  | 6.21 |  |
| CF-9, CF-G3-(GPO)9 (peptide) | 58 |  |  |  |

More lines, main results first:

| percent retention [1] [%] | fold binding against comparable length CHPs as previously reported [4] [fold] | pKd [5] | Substance | also measured |
| --- | --- | --- | --- | --- |
| 66 | 4 |  | CF-6d, [CF-G3(GPO)6G3]2KG (peptide) | percent higher initial binding (against the monomeric CHP) [2]: 350%; percent more peptide remaining after 20 h wash at 37 °C (against the monomeric CHP) [3]: 50% |
|  | 4 |  | CF-9d, [CF-Ahx-(GPO)9G3]2KG (peptide) |  |
|  |  | 6.24 | b-9, (GPO)9-G3K^Biotin (peptide) |  |
